Experimental data as given in patent US9532972B2, “Increasing taxane sensitivity in cancer cells” (UNIVERSITY OF CENTRAL FLORIDA RESEARCH FOUNDATION, INC., priority 2012, dated 2017).

Tests used:
P69 = assay: MTS cell viability assay
MDA-MB-231 = assay: MTS cell viability assay

CC(=O)O[C@@]12CO[C@@H]1C[C@H](O)[C@@]1(C)C(=O)[C@H](O)C3=C(C)[C@@H](OC(=O)[C@H](O)[C@@H](NC(=O)OC(C)(C)C)c4ccccc4)C[C@@](O)([C@@H](OC(=O)c4ccccc4)[C@H]21)C3(C)C [docetaxel]
population of viable cells (P69): smaller population of viable cells | population of viable cells (MDA-MB-231): smaller population of viable cells
